Assay results reported in patent publication US12234230B2, “Substituted benzyl-triazole compounds for Cbl-b inhibition, and further uses thereof” (Nurix Therapeutics, Inc., priority 2019, dated 2025).

System: primary human total T-cells
Test: Primary human total T-cell activation (IL-2 secretion, CD25 surface staining), Biological Example 2
Conditions: anti-CD3 and anti-CD28 co-stimulation, fold change over baseline; for CD25 staining CD3/CD28 0.3 μM: 0.3 μM inhibitor; for CD25 staining CD3/CD28 1 μM: 1 μM inhibitor

| SMILES | CD25 staining CD3/CD28 0.3 μM | CD25 staining CD3/CD28 1 μM |
| --- | --- | --- |
| C[C@@H]1CN(Cc2cc3c(c(C(F)(F)F)c2)CN(c2cccc([C@@H](c4nncn4C)C4CCC4)c2)C3=O)CCC1(F)F [Compound 2, 2-(3-((S)-cyclobutyl(4-methyl-4H-1,2,4-triazol-3-yl)methyl)phenyl)-6-(((R)-4,4-difluoro-3-methylpiperidin-1-yl)methyl)-4-(trifluoromethyl)isoindolin-1-one] | A (A indicates >1.39 fold) | A (A indicates >1.39 fold) |
| Cn1cnnc1C1(c2cccc(N3Cc4c(cccc4C(F)(F)F)C3=O)c2)CCCC1 [Compound 11, 2-(3-(1-(4-methyl-4H-1,2,4-triazol-3-yl)cyclopentyl)phenyl)-4-(trifluoromethyl)isoindolin-1-one] | C (C indicates <1.24 fold) | C (C indicates <1.24 fold) |
| Cc1cc(C(=O)Nc2cccc([C@@H](c3nncn3C)C3CCC3)c2)nc(C2CC2)n1 [Compound 12, (S)—N-(3-(cyclobutyl(4-methyl-4H-1,2,4-triazol-3-yl)methyl)phenyl)-2-cyclopropyl-6-methylpyrimidine-4-carboxamide] | C (C indicates <1.24 fold) | C (C indicates <1.24 fold) |
| Cc1cc(C(=O)Nc2cccc([C@H](c3nncn3C)C3CCC3)c2)nc(C2CC2)n1 [Compound 13, (R)—N-(3-(cyclobutyl(4-methyl-4H-1,2,4-triazol-3-yl)methyl)phenyl)-2-cyclopropyl-6-methylpyrimidine-4-carboxamide] | C (C indicates <1.24 fold) | C (C indicates <1.24 fold) |
| CC(c1cc2c(c(C(F)(F)F)c1)CN(c1cccc([C@@H](c3nncn3C)C3CCC3)c1)C2=O)N1CCC(F)(F)[C@H](C)C1 (stereo partly drawn) [Compound 14, 2-(3-((S)-cyclobutyl(4-methyl-4H-1,2,4-triazol-3-yl)methyl)phenyl)-6-(1-((R)-4,4-difluoro-3-methylpiperidin-1-yl)ethyl)-4-(trifluoromethyl)isoindolin-1-one] |  | A (A indicates >1.39 fold) |
| CC(c1cc2c(c(C(F)(F)F)c1)CN(c1cccc([C@@H](c3nncn3C)C3CCC3)c1)C2=O)N1CCC[C@H](C)C1 (stereo partly drawn) [Compound 16, 2-(3-((S)-cyclobutyl(4-methyl-4H-1,2,4-triazol-3-yl)methyl)phenyl)-6-(1-((S)-3-methylpiperidin-1-yl)ethyl)-4-(trifluoromethyl)isoindolin-1-one] | A (A indicates >1.39 fold) | A (A indicates >1.39 fold) |
| C[C@@H]1CN(Cc2cc3c(c(C(F)(F)F)c2)CN(c2cccc([C@]4(c5nncn5C)C[C@@H](C)C4)c2)C3=O)CCC1(F)F [Compound 19, 6-(((R)-4,4-difluoro-3-methylpiperidin-1-yl)methyl)-2-(3-((1s,3S)-3-methyl-1-(4-methyl-4H-1,2,4-triazol-3-yl)cyclobutyl)phenyl)-4-(trifluoromethyl)isoindolin-1-one] | C (C indicates <1.24 fold) | C (C indicates <1.24 fold) |
| Cc1cc(C(=O)Nc2cccc([C@]3(c4nncn4C)C[C@H](C)C3)c2)nc(C2CC2)n1 [Compound 22, 2-cyclopropyl-6-methyl-N-{3-[(1s,3r)-3-methyl-1-(4-methyl-1,2,4-triazol-3-yl)cyclobutyl]phenyl}pyrimidine-4-carboxamide] | C (C indicates <1.24 fold) | C (C indicates <1.24 fold) |
| C[C@@H]1CN(Cc2cc3c(c(C(F)(F)F)c2)CN(c2cccc([C@]4(c5nncn5C)C[C@@H](C)C4)c2)C3=O)CCO1 [Compound 24, 2-(3-((1s,3S)-3-methyl-1-(4-methyl-4H-1,2,4-triazol-3-yl)cyclobutyl)phenyl)-6-(((R)-2-methylmorpholino)methyl)-4-(trifluoromethyl)isoindolin-1-one] | C (C indicates <1.24 fold) | C (C indicates <1.24 fold) |
| C[C@@H]1CN(Cc2cc3c(c(C4CC4)n2)CN(c2cccc([C@]4(c5nncn5C)C[C@@H](C)C4)c2)C3=O)CCC1(F)F [Compound 26, 4-cyclopropyl-6-(((R)-4,4-difluoro-3-methylpiperidin-1-yl)methyl)-2-(3-((1s,3S)-3-methyl-1-(4-methyl-4H-1,2,4-triazol-3-yl)cyclobutyl)phenyl)-2,3-dihydro-1H-pyrrolo[3,4-c]pyridin-1-one] |  | A (A indicates >1.39 fold) |
| CC[C@H]1CN(Cc2cc3c(c(C(F)(F)F)c2)CN(c2cccc([C@]4(c5nncn5C)C[C@@H](C)C4)c2)C3=O)CCO1 [Compound 27, 6-(((S)-2-ethylmorpholino)methyl)-2-(3-((1s,3R)-3-methyl-1-(4-methyl-4H-1,2,4-triazol-3-yl)cyclobutyl)phenyl)-4-(trifluoromethyl)isoindolin-1-one] |  | A (A indicates >1.39 fold) |
| C[C@@H]1CN(Cc2cc3c(c(C(F)(F)F)c2)CN(c2cccc([C@]4(c5nncn5C)C[C@@H](O)C4)c2)C3=O)CCC1(F)F [Compound 31, 6-(((R)-4,4-difluoro-3-methylpiperidin-1-yl)methyl)-2-(3-((1s,3S)-3-hydroxy-1-(4-methyl-4H-1,2,4-triazol-3-yl)cyclobutyl)phenyl)-4-(trifluoromethyl)isoindolin-1-one] | A (A indicates >1.39 fold) | A (A indicates >1.39 fold) |
| C[C@H]1CCCN(Cc2cc3c(c(C(F)(F)F)c2)CN(c2cccc([C@]4(c5nncn5C)C[C@@H](O)C4)c2)C3=O)C1 [Compound 32, 2-(3-((1s,3R)-3-hydroxy-1-(4-methyl-4H-1,2,4-triazol-3-yl)cyclobutyl)phenyl)-6-(((S)-3-methylpiperidin-1-yl)methyl)-4-(trifluoromethyl)isoindolin-1-one] | A (A indicates >1.39 fold) | A (A indicates >1.39 fold) |
| CO[C@H]1C[C@@](c2cccc(N3Cc4c(cc(CN5CCC(F)(F)[C@H](C)C5)cc4C(F)(F)F)C3=O)c2)(c2nncn2C)C1 [Compound 33, 6-(((R)-4,4-difluoro-3-methylpiperidin-1-yl)methyl)-2-(3-((1s,3S)-3-methoxy-1-(4-methyl-4H-1,2,4-triazol-3-yl)cyclobutyl)phenyl)-4-(trifluoromethyl)isoindolin-1-one] |  | A (A indicates >1.39 fold) |
| CO[C@H]1C[C@](c2cccc(N3Cc4c(cc(CN5CCC(F)(F)[C@H](C)C5)cc4C(F)(F)F)C3=O)c2)(c2nncn2C)C1 [Compound 36, 6-(((R)-4,4-difluoro-3-methylpiperidin-1-yl)methyl)-2-(3-(trans-3-methoxy-1-(4-methyl-4H-1,2,4-triazol-3-yl)cyclobutyl)phenyl)-4-(trifluoromethyl)isoindolin-1-one] | C (C indicates <1.24 fold) | C (C indicates <1.24 fold) |
| CO[C@H]1C[C@](c2cccc(N3Cc4c(cc(CN5CCC[C@H](C)C5)cc4C(F)(F)F)C3=O)c2)(c2nncn2C)C1 [Compound 37, 2-(3-((1r,3S)-3-methoxy-1-(4-methyl-4H-1,2,4-triazol-3-yl)cyclobutyl)phenyl)-6-(((S)-3-methylpiperidin-1-yl)methyl)-4-(trifluoromethyl)isoindolin-1-one] |  | A (A indicates >1.39 fold) |
| C[C@@H]1CN(Cc2cc3c(c(C(F)(F)F)c2)CN(c2cccc([C@]4(c5nncn5C)C[C@H](C#N)C4)c2)C3=O)CCC1(F)F [Compound 40, (1R,3r)-3-(3-(6-(((R)-4,4-difluoro-3-methylpiperidin-1-yl)methyl)-1-oxo-4-(trifluoromethyl)isoindolin-2-yl)phenyl)-3-(4-methyl-4H-1,2,4-triazol-3-yl)cyclobutane-1-carbonitrile] | A (A indicates >1.39 fold) | A (A indicates >1.39 fold) |
| C[C@@H]1CN(Cc2cc3c(c(C(F)(F)F)c2)CN(c2cccc(C4(c5nncn5C)CC5(CC5)C4)c2)C3=O)CCC1(F)F [Compound 41, 6-[[(3R)-4,4-difluoro-3-methyl-1-piperidyl]methyl]-2-[3-[5-(4-methyl-1,2,4-triazol-3-yl)spiro[2.3]hexan-5-yl]phenyl]-4-(trifluoromethyl)isoindolin-1-one] | A (A indicates >1.39 fold) | A (A indicates >1.39 fold) |
| Cn1cnnc1C1(c2cccc(N3Cc4c(cc(CN5CCC[C@H](C(F)(F)F)C5)cc4C(F)(F)F)C3=O)c2)CC2(CC2)C1 [Compound 44, (S)-2-(3-(5-(4-methyl-4H-1,2,4-triazol-3-yl)spiro[2.3]hexan-5-yl)phenyl)-4-(trifluoromethyl)-6-((3-(trifluoromethyl)piperidin-1-yl)methyl)isoindolin-1-one] | A (A indicates >1.39 fold) | A (A indicates >1.39 fold) |
| C[C@@H]1CN(C(C)(C)c2cc3c(c(C(F)(F)F)c2)CN(c2cccc(C4(c5nncn5C)CC5(CC5)C4)c2)C3=O)CCO1 [Compound 45, (R)-2-(3-(5-(4-methyl-4H-1,2,4-triazol-3-yl)spiro[2.3]hexan-5-yl)phenyl)-6-(2-(2-methylmorpholino)propan-2-yl)-4-(trifluoromethyl)isoindolin-1-one] |  | A (A indicates >1.39 fold) |
| C[C@@H]1CN(Cc2cc3c(c(C(F)(F)F)c2)CN(c2cccc(C4(c5nncn5C)COC4)c2)C3=O)CCC1(F)F [Compound 47, 6-[[(3R)-4,4-difluoro-3-methyl-1-piperidyl]methyl]-2-[3-[3-(4-methyl-1,2,4-triazol-3-yl)oxetan-3-yl]phenyl]-4-(trifluoromethyl)isoindolin-1-one] | A (A indicates >1.39 fold) | A (A indicates >1.39 fold) |
